For this experiment, the target named is Bromodomain-containing protein 4 (Homo sapiens) (UniProt O60885). Particulars: Compound concentration 20.0 uM, Protein concentration 2.0 uM, Result type QC Liability.

What follows is the remainder of the data, with few or none of the highest values.

On to `COc1ccccc1S(=O)(=O)Nc1ccc2c(c1)CN(C)C(=O)N2`, for which the ΔTm was 5.16 °C.
